What follows are molecules tested against human Kv3.1 channels (hKv3.1) (Homo sapiens, UniProt P48547) (assay: Kv3.1 channel modulation, IonWorks Quattro planar array electrophysiology). Conditions: HEK-293 cells expressing human Kv3.1; currents at −15 mV voltage step; normalised to 50 microM reference compound and vehicle.
From the text: The ability of the compounds of the invention to modulate the voltage-gated potassium channel subtypes Kv3.3/Kv3.2/Kv3.1 may be determined using the following assay. Analogous methods may be used to investigate the ability of the compounds of the invention to modulate other channel subtypes.
To assess compound effects on human Kv3.1 channels (hKv3.1): Human embryonic kidney (HEK)-hKv3.1 cell line is generated by transfecting HEK-293 cells with an expression vector with human Kv3.1 (NM_004976.4). Cells are cultured with MEM supplemented with 10% Heat-Inactivated FBS, 2 mM L-glutamine, 1% Penicillin-Streptomycin, and 0.6 mg/ml of Geneticin (G418). HEK-hKv3.1b cells were amplified in T175 cm2 flask at 37° C. with 5% C02, using MEM amplification medium, containing the G418 selection antibiotic (0.6 mg/ml). Cells were detached every 3-4 days, using DPBS to wash twice the flask, then TrypLE to dislodge the cells, and re-plated at a density of 2-4×10^6 cells/flask.
The day of the experiment, cells are removed from the incubator and the culture medium removed. Cells are washed with 5 ml of Dulbecco's PBS (DPBS) calcium and magnesium free and detached by the addition of 3 ml Versene (Invitrogen, Italy) followed by a brief incubation at 37° C. for 5 minutes. The flask is tapped to dislodge cells and 10 ml of DPBS containing calcium and magnesium is added to prepare a cell suspension. The cell suspension is then placed into a 15 ml centrifuge tube and centrifuged for 2 min at 1200 rpm. After centrifugation, the supernatant is removed and the cell pellet re-suspended in 4 ml of DPBS containing calcium and magnesium using a 5 ml pipette to break up the pellet. Cell suspension volume is then corrected to give a cell concentration for the assay of approximately 3 million cells per ml.
Experiments are conducted at r.t. using IonWorks Quattro™ planar array electrophysiology technology (Molecular Devices Corp.) with PatchPlate™ PPC. […] Planar electrode hole resistances (Rp) are determined by applying a 10 mV voltage step across each well. […]

Amino acid sequences for entries named in this document (tags omitted).
UniProt P48547, whole entry: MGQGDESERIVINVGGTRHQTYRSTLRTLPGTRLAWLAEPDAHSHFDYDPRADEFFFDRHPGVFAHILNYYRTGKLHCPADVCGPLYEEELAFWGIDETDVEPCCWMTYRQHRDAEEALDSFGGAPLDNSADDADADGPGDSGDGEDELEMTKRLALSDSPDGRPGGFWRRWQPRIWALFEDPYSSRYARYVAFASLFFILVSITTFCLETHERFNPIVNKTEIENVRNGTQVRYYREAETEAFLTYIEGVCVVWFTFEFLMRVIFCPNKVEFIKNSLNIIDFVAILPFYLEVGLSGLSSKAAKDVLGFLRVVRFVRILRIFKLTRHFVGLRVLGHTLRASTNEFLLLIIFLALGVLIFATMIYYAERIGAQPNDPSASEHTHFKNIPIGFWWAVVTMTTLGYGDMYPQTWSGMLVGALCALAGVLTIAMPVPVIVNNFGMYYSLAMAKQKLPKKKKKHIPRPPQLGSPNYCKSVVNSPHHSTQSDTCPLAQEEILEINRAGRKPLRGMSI

Point of comparison: `CC1(C)NC(=O)N(c2cnc(Oc3cccc(OC(F)(F)F)c3)c(N)c2)C1=O`, “Kv3.1 pEC50” value 4.6. Against it:
- CC1(C)NC(=O)N(c2cnc(Oc3cccc(OC(F)(F)F)c3)cc2N)C1=O — the same, 4.6
- Cc1ccc(Oc2cc(N)c(N3C(=O)NC(C)(C)C3=O)cn2)c2c1OCC21CC1 — higher, 5.0

Source: patent US20260199309A1, “COMPOUNDS FOR THE TREATMENT OF CENTRA NERVOUS SYSTEM DISORDERS” (Autifony Therapeutics Limited, priority 2022, published 2026)
